Laboratory results from ChEMBL document CHEMBL1201862, “PubChem BioAssay data set” (2004).
The other results are listed elsewhere or left out. Rule as the data show it: active = GI50 up to about 1.1 µM and inactive = higher. Only a part of the results of these assays is listed, not drawn at random.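 A five-concentration, 48-hour dose response in 96-well plates underlies each endpoint, interpolated linearly between surrounding concentrations. GI50 is the concentration that inhibits growth by half.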 For part of these data: Measured potencies and affinities stand elsewhere.

Test system: OVCAR-3
Assay: NCI tumour cell line growth inhibition, 48 h

Row | SMILES | GI50
1 | CCN(CCO)CCO.Oc1c(Cl)c(Cl)c(Cl)c(Cl)c1Cl | inactive: 17.9 µM
2 | N1=C(c2nnn[nH]2)NNC(c2nnn[nH]2)=N1 | inactive: > 100 µM
3 | CC1=C[C@H]2O[C@@H]3[C@H](O)[C@@H](O)[C@](C)([C@@]2(O)CC1)[C@]31CO1 | active: 0.211 µM

Test system: OVCAR-4
Assay: NCI tumour cell line growth inhibition, 48 h

Row | SMILES | GI50
4 | CCN(CCO)CCO.Oc1c(Cl)c(Cl)c(Cl)c(Cl)c1Cl | inactive: 30.9 µM
5 | N1=C(c2nnn[nH]2)NNC(c2nnn[nH]2)=N1 | inactive: > 100 µM
6 | CC1=C[C@H]2O[C@@H]3[C@H](O)[C@@H](O)[C@](C)([C@@]2(O)CC1)[C@]31CO1 | active: 0.188 µM

Test system: OVCAR-8
Assay: NCI tumour cell line growth inhibition, 48 h

Row | SMILES | GI50
7 | CCN(CCO)CCO.Oc1c(Cl)c(Cl)c(Cl)c(Cl)c1Cl | inactive: 30.9 µM
8 | N1=C(c2nnn[nH]2)NNC(c2nnn[nH]2)=N1 | inactive: > 100 µM
9 | CC1=C[C@H]2O[C@@H]3[C@H](O)[C@@H](O)[C@](C)([C@@]2(O)CC1)[C@]31CO1 | active: 0.263 µM
